For one molecule, IC50 results are on record in patent US10130608B2, “Methods of treating or preventing multiple sclerosis” (Toray Industries, Inc., priority 2014, dated 2018).

The target of the test is T1, thrombin (Homo sapiens, UniProt P00734).
T1 construct: purchased Anaspec Inc
The experiment in a line: Thrombin activity assay (SensoLyte 520 kit, FRET). In kind it is biochemical. The conditions noted are these: thrombin 300 ng/mL, 5-FAM/QXL 520 substrate 300 nmol/L, 2 hours at room temperature; read-out: IC50 value of the thrombin activity inhibition. As to the method: The action of the cyclohexane derivative (I) or the pharmaceutically acceptable salt thereof on the thrombin activity was evaluated using a SensoLyte (registered trademark) 520 thrombin activity assay kit manufactured by Anaspec Inc., which utilizes fluorescence resonance energy transfer (FRET).
The test compound was dissolved in dimethylsulfoxide (hereinafter referred to as DMSO), and diluted with the assay buffer included in the kit to a final DMSO concentration of 0.5 to 1%. […] Thereafter, the fluorescence value was measured by excitation at 485 nm and detection at 520 nm. […]
The thrombin activity inhibition rate (%) was calculated according to Equation 1, and regression analysis was carried out to obtain a sigmoid curve (variable slope), thereby calculating the IC50 value of the thrombin activity inhibition by the test compound: Thrombin activity inhibition rate (%)=(1−((fluorescence value in the presence of both thrombin and the test compound)−(fluorescence value in the absence of both thrombin and the test compound))/((fluorescence value in the presence of thrombin and absence of the test compound)−(fluorescence value in the absence of both thrombin and the test compound)))×100 Equation 1. […]

Molecules are shown by their SMILES.

Turning to `CC1CNc2c(cccc2S(=O)(=O)N[C@@H](CCCNC(=N)N)C(=O)N2CC[C@@H](C)C[C@@H]2C(=O)O)C1` (stereo partly shown) [Argatroban, reference compound], the IC50 worked out at 3 nM.
